# Test results published in PubChem BioAssay AID2227 (Johns Hopkins Ion Channel Center, 2009).
# Protein sequences, listed by entry. Tags and fused reporters are not part of them.
# UniProt Q9QUQ5, whole entry: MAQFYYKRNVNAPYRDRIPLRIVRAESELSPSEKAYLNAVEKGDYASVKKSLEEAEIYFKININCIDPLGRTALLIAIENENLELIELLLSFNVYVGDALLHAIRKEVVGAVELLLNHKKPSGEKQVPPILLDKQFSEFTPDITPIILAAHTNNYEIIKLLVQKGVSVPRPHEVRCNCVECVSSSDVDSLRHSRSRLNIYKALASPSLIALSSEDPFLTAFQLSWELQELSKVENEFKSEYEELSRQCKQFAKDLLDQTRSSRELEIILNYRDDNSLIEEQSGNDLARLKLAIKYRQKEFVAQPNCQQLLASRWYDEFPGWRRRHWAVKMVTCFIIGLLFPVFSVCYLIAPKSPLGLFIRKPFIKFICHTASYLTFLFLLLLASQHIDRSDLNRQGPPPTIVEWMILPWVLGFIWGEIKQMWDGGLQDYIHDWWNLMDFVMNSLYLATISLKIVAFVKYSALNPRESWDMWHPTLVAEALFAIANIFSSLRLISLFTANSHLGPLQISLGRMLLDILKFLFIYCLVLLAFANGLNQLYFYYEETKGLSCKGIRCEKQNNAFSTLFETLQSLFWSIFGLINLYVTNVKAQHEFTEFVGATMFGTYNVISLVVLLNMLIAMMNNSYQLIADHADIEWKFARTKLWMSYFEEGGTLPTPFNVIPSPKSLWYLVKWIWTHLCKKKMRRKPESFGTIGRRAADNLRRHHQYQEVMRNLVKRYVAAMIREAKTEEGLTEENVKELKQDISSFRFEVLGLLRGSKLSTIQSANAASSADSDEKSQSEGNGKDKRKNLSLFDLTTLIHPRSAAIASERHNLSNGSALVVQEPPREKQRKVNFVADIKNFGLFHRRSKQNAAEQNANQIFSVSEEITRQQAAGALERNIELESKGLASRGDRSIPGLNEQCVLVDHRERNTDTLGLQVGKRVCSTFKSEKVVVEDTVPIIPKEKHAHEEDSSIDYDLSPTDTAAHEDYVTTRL
# The entries are a selection whose mix differs from that of the whole data set. Active and inactive are the calls of the source.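 Rule for the calls: active = B-score of calcium response area above 5 SD of library B-scores, with initial fluorescence ratio within 5 SD of library; inactive = the rest.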
# Target: Short transient receptor potential channel 4 (Mus musculus) (UniProt Q9QUQ5)
# Experiment: TRPC4 channel potentiators under submaximal DAMGO – cell-based, mouse TRPC4beta, HEK293 mu-opioid, Fluo-4 calcium, primary screen (AID 2227)
# Settings: DAMGO EC20, Fluo-4 Ca2+ flux, at 10 µM
row,Compound,outcome
1,O=C(NCC1(N2CCCCC2)CCCCC1)c1ccc(F)cc1,inactive
2,CCOC(=O)N1CCC(Nc2ccc(F)cc2)CC1,inactive
3,COc1ccc(NC2CCN(CCc3ccccc3)CC2)c(OC)c1,inactive
4,CCOc1ccc(C)cc1CN(CCCl)CCCl,inactive
5,COc1cc(C(=O)NCC2(N(C)C)CCCCC2)ccc1OC(F)F,inactive
6,CCOC(=O)N1CCC(Nc2cccc(C)c2)CC1,inactive
7,Cc1ccc(OCC(C)C)c(CN(CCCl)CCCl)c1,inactive
8,CSc1ccccc1C(=O)NCC1(N2CCCCC2)CCCCC1,inactive
9,O=C(NCC1(N2CCCCC2)CCCCC1)c1ccc(=O)[nH]c1,inactive
10,O=C(NCC1(N2CCCCC2)CCCCC1)c1cccs1,inactive
11,COc1ccc(C(=O)NCC2(N3CCCCC3)CCCCC2)cc1,inactive
12,COc1ccc(C(=O)NCC2(N3CCCCC3)CCCCC2)c(OC)c1OC,inactive
13,CC(C)(C)OC(=O)N1CCC(N(C(=O)c2ccccc2)c2ccc(F)cc2)CC1,inactive
14,CCOC(=O)N1CCC(Nc2ccc(OC)cc2)CC1,inactive
15,O=C(OC1CN2CCC1CC2)C1c2ccccc2Oc2ccccc21 (centres undefined),inactive
16,N#CC1(Nc2ccccc2)CCN(Cc2ccccc2)CC1,inactive
17,O=C(NCC1(N2CCOCC2)CCCCC1)c1cc2ccccc2o1,inactive
18,O=C(NCC1(N2CCCCC2)CCCCC1)c1ccc(Cl)nc1,inactive
19,Cc1cc(C)cc(N(C(=O)c2ccccc2)C2CCN(C(=O)OC(C)(C)C)CC2)c1,inactive
20,COc1cc(OC)c(C(=O)NCC2(N(C)C)CCCCC2)cc1OC,inactive

row,Compound,outcome
1,COc1ccc(CN(CCCl)CCCl)cc1Cl,inactive
2,CN(C)c1cccc(C(=O)NCC2(N3CCCCC3)CCCCC2)c1,inactive
3,CC(C)c1ccc(NC2CCN(C(=O)OC(C)(C)C)CC2)cc1,inactive
4,CCCOc1ccc(C(=O)NCC2(N(C)C)CCCCC2)cc1OC,inactive
5,CN1CCC(Nc2cccc(F)c2)CC1,inactive
6,O=C(NCC1(N2CCCCC2)CCCCC1)c1cccc([N+](=O)[O-])c1,inactive
7,CCN1CCC(Nc2ccc(Cl)cc2)CC1,inactive
8,N#CC1(Nc2ccccc2)CCN(CCc2ccccc2)CC1,inactive
9,O=C(NCC1(N2CCCCC2)CCCCC1)c1ccc(OC(F)F)cc1,inactive
10,COc1ccc(NC2CCN(C(=O)OC(C)(C)C)CC2)cc1,inactive
11,CN1CCN(CCOC(=O)C(O)(c2ccccc2)c2ccccc2)CC1,inactive
12,O=C(NCC1(N2CCOCC2)CCCCC1)c1cc(=O)[nH]c2ccccc12,inactive
13,COc1cc(C(=O)NCC2(N3CCCCC3)CCCCC2)ccc1OC(F)F,inactive
14,O=C(NCC1(N2CCCCC2)CCCCC1)c1cccc(C(F)(F)F)c1,inactive
15,CC(C)(C)OC(=O)N1CCC(N(C(=O)c2ccccc2)c2ccc(Cl)cc2)CC1,inactive
16,N#Cc1ccc(C(=O)NCC2(N3CCCCC3)CCCCC2)cc1,inactive
17,c1ccc(CN2CCC(Nc3ccccc3)CC2)cc1,inactive
18,CCCN1CCC(Nc2cc(OC)cc(OC)c2)CC1,inactive
19,CN(C)C1(CNC(=O)c2cccc(C#N)c2)CCCCC1,inactive
20,COc1ccc(C(=O)NCC2(N3CCOCC3)CCCCC2)cc1OC,inactive

row,Compound,outcome
1,O=C(OC1CN2CCC1CC2)C1c2ccccc2C=Cc2ccccc21 (centres undefined),inactive
2,CCc1cc(C(=O)NCC2(N3CCCCC3)CCCCC2)sc1C,inactive
3,N/C(=N\O)c1c(N)no[n+]1[O-],inactive
4,CCOC(=O)N1CCC(Nc2ccc(C)cc2)CC1,inactive
5,CCCOc1ccc(C(=O)NCC2(N(C)C)CCCCC2)cc1,inactive
6,CC(C)(C)OC(=O)N1CCC(Nc2ccccc2)CC1,inactive
7,O=C(O)C1(Nc2ccccc2)CCN(Cc2ccccc2)CC1,inactive
8,CCOc1ncccc1C(=O)NCC1(N2CCOCC2)CCCCC1,inactive
9,CN1CCC(Nc2ccc(F)c(Cl)c2)CC1,inactive
10,CCCOc1ccc(C)cc1CN(CCCl)CCCl,inactive
11,CN1CCC(Nc2ccc(Cl)cc2)CC1,inactive
12,CCC(CO)(C(=O)OC1CN2CCC1CC2)c1ccccc1 (centres undefined),inactive
13,COc1cccc(C(=O)N(c2cc(C)cc(C)c2)C2CCN(C(=O)OC(C)(C)C)CC2)c1,inactive
14,COc1cc(OC)cc(C(=O)NCC2(N3CCOCC3)CCCCC2)c1,inactive
15,Cc1ccc(C(=O)NCC2(N3CCCCC3)CCCCC2)o1,inactive
16,Fc1ccccc1NC1CCN(Cc2ccccc2)CC1,inactive
17,COc1cc(OC)cc(C(=O)NCC2(N3CCCCC3)CCCCC2)c1,inactive
18,CN(C)c1ccc(C(=O)NCC2(N3CCCCC3)CCCCC2)cc1,inactive
19,CCN1CCC(Nc2cccc(F)c2)CC1,inactive
